Structures are written as SMILES.

The chains behind the UniProt entries cited, without tags or fusion partners.
UniProt Q9HC29, whole entry: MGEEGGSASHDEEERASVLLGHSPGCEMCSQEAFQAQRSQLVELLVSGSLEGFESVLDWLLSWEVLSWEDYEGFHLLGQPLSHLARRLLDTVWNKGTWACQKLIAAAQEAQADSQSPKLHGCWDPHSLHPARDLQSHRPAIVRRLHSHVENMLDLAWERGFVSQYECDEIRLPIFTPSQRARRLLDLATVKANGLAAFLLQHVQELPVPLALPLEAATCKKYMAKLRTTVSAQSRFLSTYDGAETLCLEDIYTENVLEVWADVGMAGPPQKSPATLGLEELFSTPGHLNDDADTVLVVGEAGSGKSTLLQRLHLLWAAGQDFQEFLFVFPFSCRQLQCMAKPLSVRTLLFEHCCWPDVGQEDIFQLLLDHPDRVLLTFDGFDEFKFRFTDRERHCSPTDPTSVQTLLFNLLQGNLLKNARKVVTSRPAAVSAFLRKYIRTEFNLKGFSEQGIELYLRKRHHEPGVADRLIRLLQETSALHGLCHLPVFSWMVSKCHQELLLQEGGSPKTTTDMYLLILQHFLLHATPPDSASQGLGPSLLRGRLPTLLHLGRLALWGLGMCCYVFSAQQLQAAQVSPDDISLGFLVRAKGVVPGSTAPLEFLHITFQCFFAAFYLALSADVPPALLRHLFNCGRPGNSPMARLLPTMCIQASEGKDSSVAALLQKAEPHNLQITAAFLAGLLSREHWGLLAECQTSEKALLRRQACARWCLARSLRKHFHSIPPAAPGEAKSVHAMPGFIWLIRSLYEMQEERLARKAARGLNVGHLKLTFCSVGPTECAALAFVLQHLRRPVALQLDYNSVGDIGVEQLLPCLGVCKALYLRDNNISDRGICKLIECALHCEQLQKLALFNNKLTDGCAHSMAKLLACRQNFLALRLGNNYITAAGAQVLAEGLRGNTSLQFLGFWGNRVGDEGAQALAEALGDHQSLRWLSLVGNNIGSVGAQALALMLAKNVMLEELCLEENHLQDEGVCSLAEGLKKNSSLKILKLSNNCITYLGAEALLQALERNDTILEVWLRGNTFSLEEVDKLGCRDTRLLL

The assay has as its target Nucleotide-binding oligomerization domain-containing protein 2 (Homo sapiens, UniProt Q9HC29). The experiment in a line: Antagonist activity at human NOD2 in HEK-Blue hNOD2 cells assessed as reduction in secreted alkaline phosphatase reporter activity at 10 uM preincubated for 3 hrs followed by stimulated with MDP for 20 hrs by Spectrophotometer method. To be noted: filed as antagonist. Format: cell-based.
In general, inhibition refers to the drop in the measured response relative to a control, in per cent. Regarding `CCCCOC(=O)CC1c2cccc(C)c2S(=O)(=O)N1C(=O)c1cccc(C(F)(F)F)c1` (stereo unspecified), the inhibition amounted to 89.7%.

Consider `CCCCOC(=O)CC1c2ccc(Cl)c(C)c2S(=O)(=O)N1C(=O)c1ccc(C(F)(F)F)cc1` (stereo unspecified), for which the inhibition turned out to be 58.2%.

For `CCCCOC(=O)CC1c2cc(OC)cc(OC)c2S(=O)(=O)N1C(=O)c1ccc(C(F)(F)F)cc1` (stereo unspecified), the inhibition came to 65.8%.

Consider `COC(=O)CC1c2cccc(C)c2S(=O)(=O)N1C(=O)c1ccc(C(F)(F)F)cc1` (stereo unspecified), for which the inhibition is 76.4%.

With `CCCCOC(=O)CC1c2cc(C)cc(C)c2S(=O)(=O)N1C(=O)c1ccc(C(F)(F)F)cc1` (stereo unspecified), the inhibition is 85.7%.

In the case of `CCCCOC(=O)CC1c2cc(F)cc(C)c2S(=O)(=O)N1C(=O)c1ccc(C(F)(F)F)cc1` (stereo unspecified), the inhibition was 66.6%.

`CCCCOC(=O)CC1c2cccc(C)c2S(=O)(=O)N1C(=O)c1ccc(C(F)(F)F)cc1` (stereo unspecified): the inhibition turned out to be 84%.

Turning to `CCCCOC(=O)CC1c2c(F)ccc(C)c2S(=O)(=O)N1C(=O)c1ccc(C(F)(F)F)cc1` (stereo unspecified), the inhibition came to 76.3%.

With `CCCCOC(=O)CC1c2cccc(C)c2S(=O)(=O)N1C(=O)c1ccccc1C(F)(F)F` (stereo unspecified), the inhibition was 90.4%.

As to `CCCCc1nnc(CC2c3cccc(C)c3S(=O)(=O)N2C(=O)c2cccc(C(F)(F)F)c2)o1` (stereo unspecified), the inhibition came out at 91.3%.

Regarding `Cc1cccc2c1S(=O)(=O)N(C(=O)c1ccc(C(F)(F)F)cc1)C2CC(=O)OC(C)(C)C` (stereo unspecified), the inhibition was 66.5%.

As for `CCCCOC(=O)CC1c2cccc(C(=O)OCCCC)c2S(=O)(=O)N1C(=O)c1ccc(C(F)(F)F)cc1` (stereo unspecified), the inhibition was found to be 66.7%.

`CCCCOC(=O)CC1c2c(OC)ccc(OC)c2S(=O)(=O)N1C(=O)c1ccc(C(F)(F)F)cc1` (stereo unspecified): the inhibition was found to be 77%.

Turning to `CCCCc1noc(CC2c3cccc(C)c3S(=O)(=O)N2C(=O)c2cccc(C(F)(F)F)c2)n1` (stereo unspecified), the inhibition came out at 78.4%.

For the compound `CCCCOC(=O)CC1c2cccc(C)c2S(=O)(=O)N1C(=O)c1ccc(C#N)cc1` (stereo unspecified), the inhibition amounted to 65.6%.

As to `CCCCOC(=O)CC1c2cccc(Cl)c2S(=O)(=O)N1C(=O)c1ccc(C(F)(F)F)cc1` (stereo unspecified), the inhibition was 92.4%.

(Values after ChEMBL document CHEMBL4765404, “Identification of benzofused five-membered sultams, potent dual NOD1/NOD2 antagonists in vitro and in vivo” (Eur J Med Chem, 2020).)
